From PMC10995192 (Nature Communications, 2024)

The chains behind the UniProt entries cited, without tags or fusion partners. Residues count along the entry.
UniProt Q9H7M9, 33-311 H98A/H100A/H117A: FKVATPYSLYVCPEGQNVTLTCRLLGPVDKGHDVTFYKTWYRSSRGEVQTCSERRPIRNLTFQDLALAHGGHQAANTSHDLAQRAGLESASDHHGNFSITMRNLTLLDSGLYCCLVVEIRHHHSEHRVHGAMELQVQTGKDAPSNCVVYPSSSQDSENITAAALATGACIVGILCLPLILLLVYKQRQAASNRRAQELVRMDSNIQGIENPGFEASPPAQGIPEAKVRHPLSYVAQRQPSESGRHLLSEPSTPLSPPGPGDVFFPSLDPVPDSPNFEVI
UniProt Q9H7M9, 33-311 H153A/H154A/H155A: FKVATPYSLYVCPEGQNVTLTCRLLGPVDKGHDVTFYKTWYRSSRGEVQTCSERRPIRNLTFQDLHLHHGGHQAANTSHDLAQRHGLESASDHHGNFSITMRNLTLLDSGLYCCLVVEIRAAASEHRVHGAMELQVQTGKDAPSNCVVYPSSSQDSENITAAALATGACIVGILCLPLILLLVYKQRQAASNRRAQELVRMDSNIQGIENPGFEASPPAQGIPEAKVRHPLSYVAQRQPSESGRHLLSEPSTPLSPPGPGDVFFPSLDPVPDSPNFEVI
UniProt Q9H7M9, 33-311 F94A: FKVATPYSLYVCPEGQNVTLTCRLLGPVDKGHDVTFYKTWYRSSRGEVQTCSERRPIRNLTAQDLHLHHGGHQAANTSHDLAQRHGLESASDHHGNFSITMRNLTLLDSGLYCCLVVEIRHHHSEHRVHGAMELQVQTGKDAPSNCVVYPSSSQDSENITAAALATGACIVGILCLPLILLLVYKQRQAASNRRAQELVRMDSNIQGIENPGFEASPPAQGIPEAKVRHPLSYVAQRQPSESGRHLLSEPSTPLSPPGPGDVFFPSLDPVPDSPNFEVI
UniProt Q9H7M9, 33-311 H98A/H100A/H154A/H155A: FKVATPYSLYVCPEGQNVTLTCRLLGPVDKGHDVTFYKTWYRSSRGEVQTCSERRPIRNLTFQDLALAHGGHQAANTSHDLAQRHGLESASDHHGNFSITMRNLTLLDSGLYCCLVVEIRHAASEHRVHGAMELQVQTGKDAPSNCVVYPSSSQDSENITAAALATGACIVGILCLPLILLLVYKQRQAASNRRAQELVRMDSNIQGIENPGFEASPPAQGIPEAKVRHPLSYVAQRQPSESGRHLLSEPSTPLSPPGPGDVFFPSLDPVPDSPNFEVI
UniProt Q9H7M9, 33-311 H98A/H100A: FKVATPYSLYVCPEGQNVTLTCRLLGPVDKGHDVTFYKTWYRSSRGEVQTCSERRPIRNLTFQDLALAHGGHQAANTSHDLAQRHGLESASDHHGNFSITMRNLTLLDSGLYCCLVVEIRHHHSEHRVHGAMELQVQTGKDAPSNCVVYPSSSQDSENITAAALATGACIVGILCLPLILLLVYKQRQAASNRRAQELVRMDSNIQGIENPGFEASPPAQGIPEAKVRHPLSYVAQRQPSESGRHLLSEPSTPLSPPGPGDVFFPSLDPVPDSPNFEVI
UniProt Q9H7M9, 33-311 R159A: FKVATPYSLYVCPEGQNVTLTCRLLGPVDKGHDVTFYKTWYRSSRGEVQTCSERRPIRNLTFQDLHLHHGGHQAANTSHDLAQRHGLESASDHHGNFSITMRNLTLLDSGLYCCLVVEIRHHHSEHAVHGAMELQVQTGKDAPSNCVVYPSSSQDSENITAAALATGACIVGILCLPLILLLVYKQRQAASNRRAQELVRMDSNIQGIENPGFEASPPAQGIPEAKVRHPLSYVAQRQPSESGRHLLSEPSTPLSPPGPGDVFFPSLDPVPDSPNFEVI
UniProt Q9H7M9, 33-311 H100A: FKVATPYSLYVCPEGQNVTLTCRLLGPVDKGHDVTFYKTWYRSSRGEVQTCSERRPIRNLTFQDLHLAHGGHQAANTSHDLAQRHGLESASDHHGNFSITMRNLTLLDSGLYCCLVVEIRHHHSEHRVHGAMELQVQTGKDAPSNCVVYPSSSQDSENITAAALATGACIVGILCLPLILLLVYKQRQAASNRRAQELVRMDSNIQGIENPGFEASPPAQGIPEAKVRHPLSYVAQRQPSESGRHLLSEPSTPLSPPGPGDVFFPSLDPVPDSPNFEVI
UniProt Q9H7M9, 33-311 H117A: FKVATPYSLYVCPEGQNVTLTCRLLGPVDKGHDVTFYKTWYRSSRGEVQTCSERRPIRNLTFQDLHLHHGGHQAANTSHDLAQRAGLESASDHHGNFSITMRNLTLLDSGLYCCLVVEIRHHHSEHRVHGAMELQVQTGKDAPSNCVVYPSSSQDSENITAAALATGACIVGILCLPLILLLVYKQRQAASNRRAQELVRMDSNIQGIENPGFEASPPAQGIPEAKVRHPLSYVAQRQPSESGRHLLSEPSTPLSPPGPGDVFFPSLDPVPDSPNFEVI
UniProt Q9H7M9, 33-311 H98A: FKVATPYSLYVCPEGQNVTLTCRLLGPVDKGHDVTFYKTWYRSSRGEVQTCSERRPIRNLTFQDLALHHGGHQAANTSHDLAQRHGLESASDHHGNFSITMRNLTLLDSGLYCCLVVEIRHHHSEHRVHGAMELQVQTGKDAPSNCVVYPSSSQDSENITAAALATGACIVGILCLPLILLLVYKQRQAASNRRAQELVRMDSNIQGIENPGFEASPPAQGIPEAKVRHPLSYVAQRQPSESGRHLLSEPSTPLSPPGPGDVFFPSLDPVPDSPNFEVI

Key:
Experiment in all cases: SPR; SNS-101 captured on IgG capture chip, VISTA-His variants flowed; 25 °C, PBS with 0.05% Tween 20; pH of the variant series not given; 1:1 Langmuir MTL fit
Conditions in all cases: both partners purified
[1] = target: T1, VISTA-His variant His98Ala/His100Ala/His117Ala (Homo sapiens, UniProt Q9H7M9, His98Ala | His100Ala | His117Ala)
T1 construct: VISTA, human; as m4 with the changes; also called His98Ala/His100Ala combined with His117Ala; source: Expi293, purified (Ni-NTA)

[2] = target: T2, VISTA-His variant His153Ala/His154Ala/His155Ala (Homo sapiens, UniProt Q9H7M9, His153Ala | His154Ala | His155Ala)
T2 construct: VISTA, human; as m4 with the changes; also called triple histidine mutant; source: Expi293, purified (Ni-NTA)

[3] = target: T3, VISTA-His variant Phe94Ala (Homo sapiens, UniProt Q9H7M9, Phe94Ala)
T3 construct: VISTA, human; as m4 with the change; also called Phe94 mutant; source: Expi293, purified (Ni-NTA)

[4] = target: T4, VISTA-His variant His98Ala/His100Ala/His154Ala/His155Ala (Homo sapiens, UniProt Q9H7M9, His98Ala | His100Ala | His154Ala | His155Ala)
T4 construct: VISTA, human; as m4 with the changes; also called His98Ala/His100Ala combined with His154Ala/His155Ala; source: Expi293, purified (Ni-NTA)

[5] = target: T5, VISTA-His variant His98Ala/His100Ala (Homo sapiens, UniProt Q9H7M9, His98Ala | His100Ala)
T5 construct: VISTA, human; as m4 with the changes; also called double histidine mutant; source: Expi293, purified (Ni-NTA)

[6] = target: T6, VISTA-His variant Arg159Ala (Homo sapiens, UniProt Q9H7M9, Arg159Ala)
T6 construct: VISTA, human; as m4 with the change; also called Arg159 mutant; source: Expi293, purified (Ni-NTA)

[7] = target: T7, VISTA-His variant His100Ala (Homo sapiens, UniProt Q9H7M9, His100)
T7 construct: VISTA, human; residue mutated to alanine; as m4 with the change; also called His100 single mutant; source: Expi293, purified (Ni-NTA)

[8] = target: T8, VISTA-His variant His117Ala (Homo sapiens, UniProt Q9H7M9, His117)
T8 construct: VISTA, human; residue mutated to alanine; as m4 with the change; also called His117 single mutant; source: Expi293, purified (Ni-NTA)

[9] = target: T9, VISTA-His variant His98Ala (Homo sapiens, UniProt Q9H7M9, His98)
T9 construct: VISTA, human; residue mutated to alanine; as m4 with the change; also called His98 single mutant; source: Expi293, purified (Ni-NTA)

- Kd [1]: 90 nM
- Kd [2]: 17 nM
- Kd [3]: 59 nM
- Kd [4]: 166 nM
- Kd [5]: 23 nM
- Kd [6]: 122 nM
- Kd [7]: 7.5 nM
- Kd [8]: 4.7 nM
- Kd [9]: 9.5 nM
B1: SNS-101, fully human monoclonal IgG1 kappa antibody against VISTA (antibody, V domains shown)
VH: EVQLVESGGGLVQPGGSLRLSCAASGFTFDDYSMNWVRQAPGKGLEWVSYISSDADTIYYADSVKGRFTISRDNAKNSLYLQMNSLRAEDTAVYYCAREAGGVLGRVDFQHWGQGTLVTVSS
VL: DIQLTQSPSSLSASVGDRVTITCQASQDISNYLNWYQQKPGKAPKLLIYDASNLGTGVPSRFSGSGSGTDFTFTISSLQPEDIATYYCQQADFVPPWTFGGGTKVEIK
